Laboratory results published in US7842488B2, “Polynucleotides encoding a human 3-phosphoinositide- dependent protein kinase” (Medical Research Council, priority 1997, dated 2010).

Chains of the proteins cited; added tags and fusions are not shown. Lines headed by an entry give the natural chain unless they say otherwise; changes in a name come on top.
UniProt P31749: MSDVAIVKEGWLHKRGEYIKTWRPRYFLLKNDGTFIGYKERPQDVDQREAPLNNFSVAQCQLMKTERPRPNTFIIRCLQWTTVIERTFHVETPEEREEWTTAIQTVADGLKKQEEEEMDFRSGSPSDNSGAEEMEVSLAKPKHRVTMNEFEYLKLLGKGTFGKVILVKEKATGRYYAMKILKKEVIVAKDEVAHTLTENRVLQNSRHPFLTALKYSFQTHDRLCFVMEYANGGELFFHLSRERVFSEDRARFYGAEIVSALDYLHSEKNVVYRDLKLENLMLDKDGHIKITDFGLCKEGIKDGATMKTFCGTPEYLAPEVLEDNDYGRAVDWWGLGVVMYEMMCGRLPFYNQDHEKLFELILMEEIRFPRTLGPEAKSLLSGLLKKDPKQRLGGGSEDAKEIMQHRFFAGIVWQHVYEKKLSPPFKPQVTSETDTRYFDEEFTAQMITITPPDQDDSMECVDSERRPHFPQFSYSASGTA

Biological target: T1, GST-PKBα (Homo sapiens, UniProt P31749)
T1 construct: generate a full length cDNA encoding the PKBα gene; made in house; host or cells: human embryonic kidney 293 cells (pEBG2T), serum starved
Assay: Activity of PDK1 preparations towards GST-PKBα
Format: biochemical
Conditions: in the presence of PtdIns(3,4,5)P3
Method: Assay of PDK1. The assay was carried out in two stages; in the first, GST-PKBα was incubated with PDK1 in the presence of MgATP and phospholipid vesicles to permit activation of GST-PKBα.
[…]. After 10 min at 30° C., the reactions were terminated by spotting the reaction mixture on to p81 phosphocellulose paper. The papers were washed in phosphoric acid and analysed as described previously. A control reaction in which GST-PKBα was omitted was taken as the blank and was always less than 5% of the activity measured in the presence of GST-PKBα. The basal GST-PKBα activity is the activity measured in the absence of PDK1. […].
Phosphorylation of GST-PKB ? by PDK1. The incubations were identical to the Stage 1 described above except that [γ^32P] ATP (200-400 cpm/pmol) was used instead of unlabelled ATP. The reactions were terminated by making the solution 1% (by mass) in SDS. The samples were run on a 7.5% SDS-polyacrylamide gel and, after staining with Coomassie blue, the gels were autoradiographed. The Coomassie blue-staining bands corresponding to GST-PKBα were excised and the ^32P-radioactivity associated with each band was quantified.
Assay of GST-PDK1 and GST-DSTPK61 activity. GST-PDK1 and GST-DSTPK61 were diluted appropriately in Buffer B containing 1 mg/ml bovine serum albumin, and assayed for their ability to activate and phosphorylate GST-PKBα [21]. […]. […]

GST-PDK1 (residues 1 to 556): full length human PDK1 GST fusion expressed in 293 cells
specific activity towards GST-PKBα: 89 000 U/mg
